Target: Carbonic anhydrase 1 (Homo sapiens, UniProt P00915)

Protein sequences, listed by entry. Tags and fused reporters are not part of them. Lines headed by an entry give the natural chain unless they say otherwise; changes in a name come on top.
UniProt P00915: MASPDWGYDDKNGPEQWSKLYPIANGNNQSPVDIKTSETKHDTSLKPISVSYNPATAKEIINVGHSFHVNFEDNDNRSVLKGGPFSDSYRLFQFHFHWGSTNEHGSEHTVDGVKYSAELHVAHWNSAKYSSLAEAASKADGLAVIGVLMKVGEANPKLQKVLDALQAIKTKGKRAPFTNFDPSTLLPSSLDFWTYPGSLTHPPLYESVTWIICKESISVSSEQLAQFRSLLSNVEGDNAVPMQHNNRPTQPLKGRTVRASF

Which Ki does the source give for `[F-].[K+]` [POTASSIUM FLUORIDE] here?
The Ki was over 300 mM.

— ChEMBL document CHEMBL1641504, “Characterization and anions inhibition studies of an α-carbonic anhydrase from the teleost fish Dicentrarchus labrax” (Bioorg Med Chem, 2011)
